These are literature values, as cited in US11718654B2, “IL-2R-βγ binding compounds” (MEDIKINE, INC., priority 2019, dated 2023).

Series [1] relates to melanoma and renal carcinoma. As to conditions: patients with melanoma and renal carcinoma; cited from earlier work.
Another series concerns tumor. As to conditions: in vivo; cited from earlier work.

As to “IL-2: Recombinant human Interleukin-2, natural cytokine, reference IL-2R agonist”, the “Durable responses, share of patients” value in series [1] was “up to 10%”.
With “bempegaldesleukin (NKTR-214): reported to be a biased IL-2Rβγc agonist; combined with neo-antigen vaccine VB10.NEO”, the “Neoantigen-specific T-cell responses” value in the series on tumor is “Synergistic effects on neoantigen-specific T-cell responses were observed”.
